Measured values: patent US4883863A, “Tripeptide derivatives and antiplasmin agents containing the same” (Nitto Boseki Co., Ltd., priority 1987, dated 1989)
Read-outs that look alike come from different tables or passages of the source.

Chains of the proteins cited; added tags and fusions are not shown. Residues count along the entry.
UniProt P00747, 581-810 limits assumed: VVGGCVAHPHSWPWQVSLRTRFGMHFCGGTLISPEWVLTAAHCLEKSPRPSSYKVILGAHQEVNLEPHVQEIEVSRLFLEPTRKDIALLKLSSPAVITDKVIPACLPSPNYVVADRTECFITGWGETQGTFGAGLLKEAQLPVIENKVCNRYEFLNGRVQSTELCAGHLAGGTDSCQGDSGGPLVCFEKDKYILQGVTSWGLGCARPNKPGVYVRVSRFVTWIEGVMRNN
UniProt P00747, 97-580 partner limits assumed: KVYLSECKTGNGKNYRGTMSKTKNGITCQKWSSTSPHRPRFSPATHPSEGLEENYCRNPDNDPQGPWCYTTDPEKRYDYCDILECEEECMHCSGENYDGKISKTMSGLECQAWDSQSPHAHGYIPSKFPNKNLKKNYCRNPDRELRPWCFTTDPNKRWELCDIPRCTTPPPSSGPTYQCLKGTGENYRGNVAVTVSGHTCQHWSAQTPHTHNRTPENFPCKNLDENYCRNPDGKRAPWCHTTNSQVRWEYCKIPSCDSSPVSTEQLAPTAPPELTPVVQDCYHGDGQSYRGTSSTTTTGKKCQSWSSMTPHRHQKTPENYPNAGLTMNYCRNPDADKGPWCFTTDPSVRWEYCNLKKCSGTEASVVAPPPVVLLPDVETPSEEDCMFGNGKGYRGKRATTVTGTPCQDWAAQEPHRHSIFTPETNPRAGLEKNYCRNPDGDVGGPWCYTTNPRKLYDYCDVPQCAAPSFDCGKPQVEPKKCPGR
UniProt P00760, 24-246 limits assumed: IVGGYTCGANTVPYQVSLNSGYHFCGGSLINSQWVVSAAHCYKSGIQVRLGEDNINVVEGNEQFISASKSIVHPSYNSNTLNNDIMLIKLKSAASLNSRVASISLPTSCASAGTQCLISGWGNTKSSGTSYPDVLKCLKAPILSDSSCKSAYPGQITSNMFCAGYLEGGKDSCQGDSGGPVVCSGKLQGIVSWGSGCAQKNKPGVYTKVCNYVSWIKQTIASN
UniProt P03952, 391-638 limits assumed: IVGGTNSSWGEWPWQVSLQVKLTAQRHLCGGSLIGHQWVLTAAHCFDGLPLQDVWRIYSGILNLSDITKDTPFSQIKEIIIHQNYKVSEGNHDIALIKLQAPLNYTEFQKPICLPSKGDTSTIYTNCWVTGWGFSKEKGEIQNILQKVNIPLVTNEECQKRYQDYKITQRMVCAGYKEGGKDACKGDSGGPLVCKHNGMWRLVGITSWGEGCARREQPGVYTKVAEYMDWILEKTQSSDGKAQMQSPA
UniProt P03952, 20-390 partner limits assumed: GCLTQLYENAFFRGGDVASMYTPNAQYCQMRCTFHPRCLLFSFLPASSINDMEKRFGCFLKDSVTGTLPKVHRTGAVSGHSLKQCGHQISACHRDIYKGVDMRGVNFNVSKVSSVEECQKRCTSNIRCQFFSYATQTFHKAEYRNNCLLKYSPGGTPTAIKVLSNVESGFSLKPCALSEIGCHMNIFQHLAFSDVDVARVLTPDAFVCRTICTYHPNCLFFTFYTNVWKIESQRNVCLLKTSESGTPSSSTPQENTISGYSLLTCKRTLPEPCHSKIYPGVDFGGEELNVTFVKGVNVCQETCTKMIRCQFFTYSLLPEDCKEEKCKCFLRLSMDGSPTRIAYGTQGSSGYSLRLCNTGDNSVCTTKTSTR
UniProt P00742, 235-488 limits assumed: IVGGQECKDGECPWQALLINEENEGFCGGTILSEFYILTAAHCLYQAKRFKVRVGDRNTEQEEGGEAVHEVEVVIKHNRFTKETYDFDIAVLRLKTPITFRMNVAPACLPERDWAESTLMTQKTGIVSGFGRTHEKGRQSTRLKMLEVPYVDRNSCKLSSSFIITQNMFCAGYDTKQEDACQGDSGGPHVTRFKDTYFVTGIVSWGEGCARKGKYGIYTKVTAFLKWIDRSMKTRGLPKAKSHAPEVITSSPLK
UniProt P00742, 41-179 partner limits assumed: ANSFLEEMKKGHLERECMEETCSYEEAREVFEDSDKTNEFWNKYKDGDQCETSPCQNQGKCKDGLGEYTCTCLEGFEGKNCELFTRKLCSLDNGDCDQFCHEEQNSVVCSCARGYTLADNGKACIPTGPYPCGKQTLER

Legend:
Type in all cases: biochemical
plasmin [1] = molecular target: T1, plasmin (Homo sapiens, UniProt P00747); experiment: Plasmin-inhibiting activity, synthetic substrate PS-994; conditions: read-out: Synthetic substrate IC50 Plasmin, Table 4, PS-994, pH 7.8, 37° C.
thrombin = thrombin (Homo sapiens, UniProt P00734); experiment: Thrombin-inhibiting activity, synthetic substrate PS-915; conditions: read-out: Synthetic substrate IC50 Thrombin, Table 4, PS-915, pH 8.5, 37° C.
trypsin = trypsin (Bos taurus, UniProt P00760); experiment: Trypsin-inhibiting activity, synthetic substrate PS-915; conditions: read-out: Synthetic substrate IC50 Trypsin, Table 4, PS-915, pH 8.0, 37° C.
human plasma kallikrein = human plasma kallikrein (Homo sapiens, UniProt P03952); experiment: Kallikrein-inhibiting activity, synthetic substrate S-2302; conditions: read-out: Synthetic substrate IC50 Kallikrein, S-2302, pH 8.0, 37° C.
human Factor Xa = human Factor Xa (Homo sapiens, UniProt P00742); experiment: Factor Xa-inhibiting activity, synthetic substrate PS-2000; conditions: read-out: Synthetic substrate IC50 Factor Xa, PS-2000, pH 8.5, 37° C.
plasmin [2] = molecular target: T1, plasmin; experiment: Inhibitory activity on fibrin decomposition by plasmin (natural substrate); conditions: read-out: Natural substrate IC50 Fibrin, concentration doubling time for complete dissolution, 25° C.

SMILES | IC50 (plasmin [1]; tested form: HCl) [µM] | IC50 (thrombin; tested form: HCl) [µM] | IC50 (trypsin; tested form: HCl) [µM] | IC50 (human plasma kallikrein; Table 4, tested form: HCl) [µM] | IC50 (human Factor Xa; Table 4, tested form: HCl) [µM] | IC50 (plasmin [2]; Table 4, tested form: HCl) [µM] | IC50 (plasmin [1]; tested form: 2HCl) [µM] | IC50 (thrombin; tested form: 2HCl) [µM] | IC50 (trypsin; tested form: 2HCl) [µM] | IC50 (human plasma kallikrein; Table 4, tested form: 2HCl) [µM] | IC50 (human Factor Xa; Table 4, tested form: 2HCl) [µM] | IC50 (plasmin [2]; Table 4, tested form: 2HCl) [µM] | IC50 (human plasma kallikrein; Table 3, tested form: 2CH3SO3H) [µM] | IC50 (human Factor Xa; Table 3, tested form: 2CH3SO3H) [µM] | IC50 (plasmin [2]; Table 3, tested form: mesylate) [µM]
Cc1ccc(S(=O)(=O)NCCCC[C@@H](NS(=O)(=O)c2ccc3ccccc3c2)C(=O)N[C@@H](Cc2ccccc2)C(=O)N[C@H](C=O)CCCCN)cc1 | 0.016 | > 100 | 3.5 | 0.79 | 22 | 0.78 |  |  |  |  |  |  |  |  | 
Cc1ccc(S(=O)(=O)NCCCC[C@@H](N)C(=O)N[C@@H](Cc2ccccc2)C(=O)N[C@@H](CCCCN)C(=O)CCl)cc1 |  |  |  |  |  |  | 0.0071 | 7.8 | 0.13 | 0.046 | 21 | 0.28 |  |  | 
Cc1ccc(S(=O)(=O)Oc2ccc(CC(NC(=O)OCC(C)C)C(=O)N[C@@H](Cc3ccccc3)C(=O)N[C@H](C=O)CCCCN)cc2)cc1 (stereo partly drawn) | 0.03 | > 1000 | 5.2 | 2.9 | 7.1 | 0.48 |  |  |  |  |  |  |  |  | 
Cc1ccc(S(=O)(=O)NCCCC[C@@H](NS(=O)(=O)c2ccc(Cl)cc2)C(=O)N[C@@H](Cc2ccccc2)C(=O)N[C@@H](CCCCN)C(=O)CCl)cc1 | 0.013 | 1.4 | 0.058 | 0.032 | 2.5 | 0.1 |  |  |  |  |  |  |  |  | 
N=C(N)Nc1ccc(C(=O)Oc2ccc3cc(C(=N)N)ccc3c2)cc1 [Nafamstat] |  |  |  |  |  |  |  |  |  |  |  |  | 0.00089 | 4.1 | 
CCOC(=O)c1ccc(OC(=O)CCCCCNC(=N)N)cc1 |  |  |  |  |  |  |  |  |  |  |  |  |  |  | 14

Results, then the compound that gave them:

IC50 (plasmin [1]; tested form: HCl) [µM] | IC50 (thrombin; tested form: HCl) [µM] | IC50 (trypsin; tested form: HCl) [µM] | IC50 (human plasma kallikrein; Table 4, tested form: HCl) [µM] | IC50 (human Factor Xa; Table 4, tested form: HCl) [µM] | IC50 (plasmin [2]; Table 4, tested form: HCl) [µM] | IC50 (plasmin [1]; tested form: 2HCl) [µM] | IC50 (thrombin; tested form: 2HCl) [µM] | IC50 (trypsin; tested form: 2HCl) [µM] | IC50 (human plasma kallikrein; Table 4, tested form: 2HCl) [µM] | IC50 (human Factor Xa; Table 4, tested form: 2HCl) [µM] | IC50 (plasmin [2]; Table 4, tested form: 2HCl) [µM] | IC50 (human plasma kallikrein; Table 3, tested form: 2CH3SO3H) [µM] | IC50 (human Factor Xa; Table 3, tested form: 2CH3SO3H) [µM] | IC50 (plasmin [2]; Table 3, tested form: mesylate) [µM] | SMILES
0.11 | 7.8 | 0.89 | 0.071 | 8.3 | 1 |  |  |  |  |  |  |  |  |  | Cc1ccc(S(=O)(=O)NCCCC[C@@H](NC(=O)Cc2ccccc2)C(=O)N[C@@H](Cc2ccccc2)C(=O)N[C@@H](CCCCN)C(=O)CCl)cc1
0.002 | 0.11 | 0.015 | 0.0038 | 0.74 | 0.09 |  |  |  |  |  |  |  |  |  | CCS(=O)(=O)N[C@H](CCCCNS(=O)(=O)c1ccc(C)cc1)C(=O)N[C@@H](Cc1ccccc1)C(=O)N[C@@H](CCCCN)C(=O)CCl
0.0035 | 0.2 | 0.03 | 0.0058 | 1.3 | 0.11 |  |  |  |  |  |  |  |  |  | Cc1ccc(S(=O)(=O)NCCCC[C@@H](NS(C)(=O)=O)C(=O)N[C@@H](Cc2ccccc2)C(=O)N[C@@H](CCCCN)C(=O)CCl)cc1
0.025 | 2 | 0.22 | 0.02 | 5.5 | 0.34 |  |  |  |  |  |  |  |  |  | Cc1ccc(S(=O)(=O)NCCCC[C@@H](NC(=O)COc2ccccc2)C(=O)N[C@@H](Cc2ccccc2)C(=O)N[C@@H](CCCCN)C(=O)CCl)cc1
> 1000 | > 1000 | > 1000 | > 1000 | > 1000 | 210 |  |  |  |  |  |  |  |  |  | Cc1ccc(S(=O)(=O)NCCCC[C@@H](NC(=O)OCC(C)C)C(=O)N[C@@H](Cc2ccccc2)C(=O)N[C@@H](CCCCN)C(=O)N2CCC(Cc3ccccc3)CC2)cc1
0.054 | 3.4 | 0.48 | 0.058 | 3.7 | 0.78 |  |  |  |  |  |  |  |  |  | Cc1ccc(C(=O)N[C@H](CCCCNS(=O)(=O)c2ccc(C)cc2)C(=O)N[C@@H](Cc2ccccc2)C(=O)N[C@@H](CCCCN)C(=O)CCl)cc1
0.02 | 10 | 0.15 | 0.043 | 13 | 0.38 |  |  |  |  |  |  |  |  |  | Cc1ccc(S(=O)(=O)NCCCC[C@@H](NC=O)C(=O)N[C@@H](Cc2ccccc2)C(=O)N[C@@H](CCCCN)C(=O)CCl)cc1
0.03 | 15 | 0.66 | 0.22 | 38 | 1 |  |  |  |  |  |  |  |  |  | CC(=O)N[C@H](CCCCNS(=O)(=O)c1ccc(C)cc1)C(=O)N[C@@H](Cc1ccccc1)C(=O)N[C@@H](CCCCN)C(=O)CCl
